Experiments:
Mu-type opioid receptor [1] = target: T1, Mu-type opioid receptor (Homo sapiens, UniProt P35372); experiment: Agonist activity at human mu opioid receptor transfected in CHO cell membranes assessed as stimulation of [35S]GTPgammaS binding after 60 mins by scintillation counting analysis
Nociceptin receptor [2] = target: T2, Nociceptin receptor (Homo sapiens, UniProt P41146); experiment: Displacement of [3H]N/OFQ from human nociceptin opioid receptor transfected in CHO cell membranes
Mu-type opioid receptor [3] = target: T1, Mu-type opioid receptor; experiment: Displacement of [3H]DAMGO from human mu opioid receptor transfected in CHO cell membranes after 60 mins
Nociceptin receptor [4] = target: T2, Nociceptin receptor; experiment: Agonist activity at human nociceptin opioid receptor transfected in CHO cell membranes assessed as stimulation of [35S]GTPgammaS binding after 60 mins by scintillation counting analysis

Sequences of proteins named here, by UniProt entry; tags and fusion partners are left off.
UniProt P35372, whole entry: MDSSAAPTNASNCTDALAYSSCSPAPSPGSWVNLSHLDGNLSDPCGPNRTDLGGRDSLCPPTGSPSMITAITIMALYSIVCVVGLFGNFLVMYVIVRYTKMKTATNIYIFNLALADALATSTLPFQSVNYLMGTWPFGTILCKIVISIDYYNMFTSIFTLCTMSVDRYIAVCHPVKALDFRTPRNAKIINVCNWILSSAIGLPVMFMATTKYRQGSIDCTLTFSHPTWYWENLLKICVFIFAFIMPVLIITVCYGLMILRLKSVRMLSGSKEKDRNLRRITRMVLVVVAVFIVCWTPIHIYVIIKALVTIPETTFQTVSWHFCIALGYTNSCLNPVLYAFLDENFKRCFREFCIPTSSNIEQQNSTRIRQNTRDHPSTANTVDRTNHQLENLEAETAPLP
UniProt P41146, whole entry: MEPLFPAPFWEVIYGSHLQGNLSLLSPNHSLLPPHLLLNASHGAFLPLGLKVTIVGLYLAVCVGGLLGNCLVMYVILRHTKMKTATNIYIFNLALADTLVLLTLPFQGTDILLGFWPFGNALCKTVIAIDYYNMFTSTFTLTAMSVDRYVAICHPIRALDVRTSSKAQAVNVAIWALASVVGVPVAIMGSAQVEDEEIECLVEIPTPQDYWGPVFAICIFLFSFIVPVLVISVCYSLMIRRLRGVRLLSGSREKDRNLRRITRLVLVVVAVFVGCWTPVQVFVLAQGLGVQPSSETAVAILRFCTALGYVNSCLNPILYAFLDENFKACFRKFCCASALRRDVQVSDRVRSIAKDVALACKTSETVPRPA

CCC1C(=O)N(C2CCN([C@H]3CC[C@@H]4CCCc5cccc3c54)CC2)c2ccccc21 (some centres undefined)
EC50 (Mu-type opioid receptor [1]): 0.057 µM
Ki (Nociceptin receptor [2]): 0.0032 µM
Ki (Mu-type opioid receptor [3]): 0.0082 µM
EC50 (Nociceptin receptor [4]): 0.022 µM

From BindingDB's records for 24657054
